Values of other authors, collected in article PMC6118895 (Angewandte Chemie (International ed. in English), 2018).

Test system: EGFR Ex20Ins mutant-transfected Ba/F3 cells
Settings: most EGFR Ex20Ins mutant-transfected Ba/F3 cells; cited from earlier work

SMILES: COc1cc2ncnc(Nc3ccc(F)c(Cl)c3)c2cc1OCCCN1CCOCC1 [gefitinib]
- Response of EGFR Ex20Ins mutant-transfected Ba/F3 cells: resistance
